According to PubChem BioAssay AID493008 (The Scripps Research Institute Molecular Screening Center, 2010):
Only a part is listed here, and it is no random draw. Some tests of the compounds listed are not included; inactive here does not mean inactive elsewhere. Active and inactive are the calls of the source.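 How the source made its calls: active means activation above the mean over all tested compounds plus 3 SD (cut at about 30% in these data); inactive means the rest.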

target: Troponin I, cardiac muscle (Homo sapiens) + Troponin T, cardiac muscle (Homo sapiens) + Troponin C, slow skeletal and cardiac muscles (Homo sapiens) (UniProt P19429+P45379+P63316); experiment: calcium sensitizers of cardiac thin filaments – biochemical, IANBD-TnC fluorescence, EC20 calcium, primary screen (AID 493008); conditions: IANBD-labeled TnC RTF fluorescence at EC20 calcium; at 7.2 µM; stronger effect = higher value; 0% EC20 calcium, 100% full calcium;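 further: rise in fluorescence read as greater calcium sensitivity of cardiac thin filaments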

Row | Compound | activation
1 | CN(C)C1(CNC(=O)c2ccc(Br)cc2)CCCCC1 | inactive: -3.7%
2 | COc1cc(C(=O)NCC2(N(C)C)CCCCC2)c([N+](=O)[O-])cc1OC | inactive: -4.41%
3 | COc1ccc(Cl)cc1C(=O)NCC1(N(C)C)CCCCC1 | inactive: -2.23%
4 | COc1cccc(C(=O)NCC2(N3CCCCC3)CCCCC2)c1 | inactive: -5%
5 | O=C(NCC1(N2CCCCC2)CCCCC1)c1cccc(Cl)c1 | inactive: -2.85%
6 | O=C(OC1CN2CCC1CC2)C(CO)(c1ccccc1)c1ccccc1 (stereo not given) | inactive: -4.11%
7 | COc1ccc(Br)c(C(=O)NCC2(N3CCCCC3)CCCCC2)c1 | inactive: 3.87%
8 | CN(C)c1cccc(C(=O)NCC2(N(C)C)CCCCC2)c1 | inactive: -2.33%
9 | O=C(OCCN1CCCC1)C(O)(c1ccccc1)c1ccccc1 | inactive: 4.23%
10 | CC(C)Oc1ccc(C(=O)NCC2(N(C)C)CCCCC2)cc1 | inactive: 3.95%
11 | O=C(NCC1(N2CCCCC2)CCCCC1)c1cc([N+](=O)[O-])ccc1Cl | inactive: 5.07%
12 | CN1[C@@H]2CC[C@H]1CC(OC(=O)C(O)(c1ccccc1)c1ccccc1)C2 (stereo not given in full) | inactive: 6.09%
13 | CC(C)N1C(=O)CC2(CCN(CCOC(=O)C(O)(c3ccccc3)c3ccccc3)CC2)C1=O | inactive: -0.69%
14 | COc1cc(SC)ccc1C(=O)NCC1(N(C)C)CCCCC1 | inactive: 0.72%
15 | CCN(CC)CC(C)C(C)OC(=O)C(O)(c1ccccc1)c1ccccc1 (stereo not given) | inactive: -1.24%
16 | Cc1ccc(C(=O)NCC2(N3CCCCC3)CCCCC2)cc1 | inactive: -4.53%
17 | CN(C)C1CCCC1OC(=O)C(O)(c1ccccc1)c1ccccc1 (stereo not given) | inactive: 3.8%
18 | CN(C)c1ccc(C(=O)NCC2(N(C)C)CCCCC2)cc1 | inactive: -8.42%
19 | Cc1ccccc1C(=O)NCC1(N2CCCCC2)CCCCC1 | inactive: -3.87%
20 | O=C(NCC1(N2CCCCC2)CCCCC1)c1cc(F)c(F)cc1Cl | inactive: -1.01%
21 | C=CCN1CCN(CCOC(=O)C(O)(c2ccccc2)c2ccccc2)CC1 | inactive: 6.53%
22 | O=C(NCC1(N2CCCCC2)CCCCC1)c1cccc(Br)c1 | inactive: -7.28%
23 | Cc1cc(C(=O)NCC2(N3CCCCC3)CCCCC2)ccc1[N+](=O)[O-] | inactive: -8.04%
24 | CCN1CCCC(OC(=O)C2(O)c3ccccc3C=Cc3ccccc32)C1 (stereo not given) | inactive: -8.94%
25 | COc1ccc(C(=O)NCC2(N(C)C)CCCCC2)cc1 | inactive: 9.38%
